Experimental data from article PMC10556141, “Yeast Rad52 is a homodecamer and possesses BRCA2-like bipartite Rad51 binding modes” (Nature Communications, 2023).

Molecular target: T1, Saccharomyces cerevisiae Rad52 (full-length) (S. cerevisiae)
T1 construct: Rad52, S. cerevisiae, full length; predicted mass of one subunit 52.4 kDa; constructs reach residue 471; Homodecamer by AUC, mass photometry and cryo-EM; The CBD was removed by elution from chitin resin with 50 mM DTT (pTXB1 plasmid); also called yeast Rad52; source: E. coli Rosetta-2 PlysS, purified (chitin resin, heparin, Q-Sepharose, Superdex-200 SEC); copies: 10
Experiment: AUC; sedimentation velocity, 40,000 rpm, 20 °C; 30 mM HEPES pH 7.8, 100 mM KCl, 10% glycerol, 1 mM TCEP; absorbance at 280 nm; c(s) model in SEDFIT; no ssDNA
Settings: both partners purified

B1: S. cerevisiae Replication Protein A (RPA) (complex)
chain 1: MSSVQLSRGDFHSIFTNKQRYDNPTGGVYQVYNTRKSDGANSNRKNLIMISDGIYHMKALLRNQAASKFQSMELQRGDIIRVIIAEPAIVRERKKYVLLVDDFELVQSRADMVNQTSTFLDNYFSEHPNETLKDEDITDSGNVANQTNASNAGVPDMLHSNSNLNANERKFANENPNSQKTRPIFAIEQLSPYQNVWTIKARVSYKGEIKTWHNQRGDGKLFNVNFLDTSGEIRATAFNDFATKFNEILQEGKVYYVSKAKLQPAKPQFTNLTHPYELNLDRDTVIEECFDESNVPKTHFNFIKLDAIQNQEVNSNVDVLGIIQTINPHFELTSRAGKKFDRRDITIVDDSGFSISVGLWNQQALDFNLPEGSVAAIKGVRVTDFGGKSLSMGFSSTLIPNPEIPEAYALKGWYDSKGRNANFITLKQEPGMGGQSAASLTKFIAQRITIARAQAENLGRSEKGDFFSVKAAISFLKVDNFAYPACSNENCNKKVLEQPDGTWRCEKCDTNNARPNWRYILTISIIDETNQLWLTLFDDQAKQLLGVDANTLMSLKEEDPNEFTKITQSIQMNEYDFRIRAREDTYNDQSRIRYTVANLHSLNYRAEADYLADELSKALLA
chain 2: MATYQPYNEYSSVTGGGFENSESRPGSGESETNTRVNTLTPVTIKQILESKQDIQDGPFVSHNQELHHVCFVGVVRNITDHTANIFLTIEDGTGQIEVRKWSEDANDLAAGNDDSSGKGYGSQVAQQFEIGGYVKVFGALKEFGGKKNIQYAVIKPIDSFNEVLTHHLEVIKCHSIASGMMKQPLESASNNNGQSLFVKDDNDTSSGSSPLQRILEFCKKQCEGKDANSFAVPIPLISQSLNLDETTVRNCCTTLTDQGFIYPTFDDNNFFAL
chain 3: MASETPRVDPTEISNVNAPVFRIIAQIKSQPTESQLILQSPTISSKNGSEVEMITLNNIRVSMNKTFEIDSWYEFVCRNNDDGELGFLILDAVLCKFKENEDLSLNGVVALQRLCKKYPEIY
notes: largest RPA subunit (RPA70), S. cerevisiae; RPA32 subunit, S. cerevisiae; smallest RPA subunit (RPA14), S. cerevisiae; Heterotrimer expressed from one plasmid; source: E. coli BL21(DE3) Rossetta PlysS (p11d-tscRPA, all three subunits), purified (Ni-NTA, Q-sepharose, heparin); copies: + +
binding result: binds
